Reference: article PMC8640019, “Discovery of an exosite on the SOCS2-SH2 domain that enhances SH2 binding to phosphorylated ligands” (Nature Communications, 2021)

The chains behind the UniProt entries cited, without tags or fusion partners. Residues count along the entry.
UniProt O14508, 32-198: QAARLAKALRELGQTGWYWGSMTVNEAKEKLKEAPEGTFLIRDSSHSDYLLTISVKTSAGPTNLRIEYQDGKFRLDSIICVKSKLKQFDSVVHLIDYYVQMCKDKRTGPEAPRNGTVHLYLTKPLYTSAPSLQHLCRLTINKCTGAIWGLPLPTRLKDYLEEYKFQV

Legend:
Type in all cases: binding
SOCS2^32–198-EloB/C [1] = target: T1, SOCS2^32–198-EloB/C (Homo sapiens, UniProt O14508); experiment: Isothermal titration calorimetry (ITC), peptide titrated into SOCS2-EloB/C
T1 construct: SOCS2 lacking the N-terminal region (SOCS2^32–198); GST (N, cleaved yes); made in house; host or cells: E. coli BL21 (R3)

SH2B = target: T2, SH2B (Homo sapiens, UniProt Q9NRF2); experiment: ITC, SH2B; conditions: single ITC run #28 (JAK2 pY813), #26 (E11); cell SH2B
T2 construct: not at all to the SOCS3 or SH2B SH2 domains; 6xHis (N); made in house; host or cells: E. coli

SOCS2^32–198-EloB/C [2] = target: T1, SOCS2^32–198-EloB/C; experiment: Competition SPR, immobilised biotin-GSGS-F3; conditions: peptides with identity to F3 tested by SPR
[3] = Table 1, values without asterisk, average ± range of two independent experiments

Compound	Kd (SOCS2^32–198-EloB/C [1]; [3])	interaction with SOCS2 (detectable binding) (SOCS2^32–198-EloB/C [2])	other results
CC[C@H](C)[C@H](NC(=O)[C@@H](N)CC(=O)O)C(=O)N[C@@H](C)C(=O)N[C@@H](CC(C)C)C(=O)N[C@@H](CCC(N)=O)C(=O)N[C@@H](Cc1c[nH]cn1)C(=O)N[C@@H](CC(C)C)C(=O)N[C@@H](CCSC)C(=O)N[C@@H](C)C(=O)N[C@@H](CCCCN)C(=O)N[C@@H](Cc1c[nH]c2ccccc12)C(=O)N[C@@H](CCSC)C(=O)N[C@@H](C)C(=O)N[C@@H](CCSC)C(=O)N[C@@H](CCC(N)=O)C(=O)N[C@@H](CC(N)=O)C(=O)O [Peptide D9A]	3.18 ± 0.43 µM		
CSCC[C@H](NC(=O)[C@H](CC(C)C)NC(=O)[C@H](Cc1c[nH]cn1)NC(=O)[C@H](CCC(=O)O)NC(=O)[C@@H](NC(=O)[C@@H]1CCCN1C(=O)[C@@H](NC(=O)[C@H](CC(N)=O)NC(=O)[C@@H](N)Cc1ccc(O)cc1)C(C)C)[C@@H](C)O)C(=O)N[C@@H](CC(C)C)C(=O)N[C@@H](CCCCN)C(=O)N[C@@H](Cc1c[nH]c2ccccc12)C(=O)N[C@@H](CC(C)C)C(=O)N[C@@H](CO)C(=O)N[C@@H](Cc1c[nH]c2ccccc12)C(=O)N[C@@H](CCC(=O)O)C(=O)O [Peptide E11]			Kd (SOCS2^32–198-EloB/C [1]; 298 K, cell SOCS2-Elo B/C alone, peptide in syringe, mean ± S.D. (n≥3) or average ± range (n=2)): 4.17 ± 3.16 µM; Kd (SOCS2^32–198-EloB/C [1]; cell SOCS2-Elo B/C + GHRpY595, average ± range (n=2) or n=1): 0.21 µM; Kd (SH2B): > 40 µM
CC[C@H](C)[C@H](NC(=O)[C@@H](N)CC(=O)O)C(=O)N[C@@H](C)C(=O)N[C@@H](CC(C)C)C(=O)N[C@@H](CCC(N)=O)C(=O)N[C@@H](Cc1c[nH]cn1)C(=O)N[C@@H](CC(C)C)C(=O)N[C@@H](CCSC)C(=O)N[C@@H](CC(=O)O)C(=O)N[C@@H](C)C(=O)N[C@@H](Cc1c[nH]c2ccccc12)C(=O)N[C@@H](CCSC)C(=O)N[C@@H](C)C(=O)N[C@@H](CCSC)C(=O)N[C@@H](CCC(N)=O)C(=O)N[C@@H](CC(N)=O)C(=O)O [Peptide K10A]	> 10 µM		
CC[C@H](C)[C@H](NC(=O)[C@@H](N)CC(=O)O)C(=O)N[C@@H](C)C(=O)N[C@@H](CC(C)C)C(=O)N[C@@H](CCC(N)=O)C(=O)N[C@@H](Cc1c[nH]cn1)C(=O)N[C@@H](C)C(=O)N[C@@H](CCSC)C(=O)N[C@@H](CC(=O)O)C(=O)N[C@@H](CCCCN)C(=O)N[C@@H](Cc1c[nH]c2ccccc12)C(=O)N[C@@H](CCSC)C(=O)N[C@@H](C)C(=O)N[C@@H](CCSC)C(=O)N[C@@H](CCC(N)=O)C(=O)N[C@@H](CC(N)=O)C(=O)O [Peptide L7A]	> 10 µM		
CC[C@H](C)[C@H](NC(=O)[C@@H](N)CC(=O)O)C(=O)N[C@@H](C)C(=O)N[C@@H](CC(C)C)C(=O)N[C@@H](CCC(N)=O)C(=O)N[C@@H](Cc1c[nH]cn1)C(=O)N[C@@H](CC(C)C)C(=O)N[C@@H](C)C(=O)N[C@@H](CC(=O)O)C(=O)N[C@@H](CCCCN)C(=O)N[C@@H](Cc1c[nH]c2ccccc12)C(=O)N[C@@H](CCSC)C(=O)N[C@@H](C)C(=O)N[C@@H](CCSC)C(=O)N[C@@H](CCC(N)=O)C(=O)N[C@@H](CC(N)=O)C(=O)O [Peptide M8A]	> 10 µM		
ARSHILDKFIET [ARMD1]		None of the peptides displayed detectable binding	
EKSKLLEKFSLV [MIA2]		None of the peptides displayed detectable binding	
GIKKAALMHKWPLKEI		None of the peptides displayed detectable binding	
GQPHLLNKFNFV [CFA54]		None of the peptides displayed detectable binding	
SDRRLLDKWVEL [MABP1]		None of the peptides displayed detectable binding	
SMMCPPGMHKWKLEQC		None of the peptides displayed detectable binding	
TPGHLLDKFIKE [OAS, peptide from Homo sapiens OAS with identity to F3]		None of the peptides displayed detectable binding	
